Key:
Type in all cases: cell-based, mouse
B16F10 melanocytes = assay: Screening of niacin-peptides: inhibition of melanogenesis against α-MSH; design: key to Screening value: Inhibition of melanogenesis against α-MSH: relative to absorbance (490 nm) of α-MSH-only positive control; settings: for Screening value: Inhibition of melanogenesis against α-MSH: 20 μg/ml α-MSH plus 10 ng/ml peptide, 3 days, UV 490 nm, α-MSH-only positive control as standard; for inhibition rate of melanogenesis: α-MSH-induced melanocytes, compared with the control group (Table 1)
Experimental: The present inventors screened skin whitening peptides by measuring decrease in melanogenesis using the niacin-peptide libraries prepared in Example 1. B16F10 melanocytes (the Korean Cell Line Bank) were incubated with α-MSH to induce melanogenesis and the inhibition of melanogenesis by the peptide libraries was analyzed. The mouse melanocytes were cultured at 37° C. in 5% CO2 atmosphere in DMEM supplemented with 10% FBS. The cells were seeded in each well of a 96-well plate (5×10^4 cells/well) and their attachment was verified. Afterwards, the control group was incubated with only solvent, the positive control group was incubated with 20 μg/ml of α-MSH and the other wells was incubated with 20 μg/ml of α-MSH and 10 ng/ml of peptides for 3 days.
The inhibition rates of melanogenesis by treatment of each peptide prepared in Example 1 were measured at UV 490 nm. The inhibition rates were calculated using the absorbance value of the positive control group incubated with only α-MSH as a standard, which are summarized in Table 1. The candidate peptides analyzed to show excellent screening results were selected and synthesized in a 100-μmole scale for further experiments. FIG. 1 represents the screening result of niacin-peptides.

[1] = test system: TRP1 (tyrosinase-related protein-1); assay: RT-PCR of melanogenesis gene expression in α-MSH-treated B16F10 cells; settings: 20 μg/ml α-MSH plus 1, 10 and 50 μg/ml, 4 days
Experimental: (§1) To more clearly check activities of niacin-peptides on skin whitening in α-MSH-treated B16F10 melanoma cells, mRNA level of TRP1 (tyrosinase-related protein-1), TRP2 and microphtnalmia-associated transcription factor (MITF) was measured using RT-PCR.
(§2) First, B16F10 cells were plated at a 6-well plate in a density of 1×10^5 cells/well and cultured for 3 days. After cell adhesion was observed, medium was changed with a fresh medium containing 2% serum. Cells were incubated with each test group for 4 days: (a) only solvent as negative control; (b) 20 μg/ml α-MSH as a positive control; (c) 20 μg/ml α-MSH plus 1, 10 and 50 μg/ml peptides (PG, PS, ET and VS); and (d) 20 μg/ml α-MSH plus 1, 10 and 50 μg/ml niacin-peptides (Nicotinoyl-PG, Nicotinoyl-PS, Nicotinoyl-ET and Nicotinoyl-VS). Subsequently, mRNA were extracted from cells and RT-PCR was carried out using primers for TRP1, TRP2 and MITF. The primer sequence is as follows: TRP1 F-primer, 5′-TGGCCCAGGATCAGTAGGT-3′ (SEQ ID NO: 54) and TRP1 R-primer, 5′-CATCAACACTTCCAGCA-3′ (SEQ ID NO: 55); TRP2 F-primer, 5′-GGCTACAATTACGCCGTTG-3′ (SEQ ID NO: 56) and TRP2 R-primer, 5′-[…]-3′ (SEQ ID NO: 57); and MITF F-primer, 5′-[…]-3′ (SEQ ID NO: 58) and MITF R-primer, 5′-[…]-3′ (SEQ ID NO: 59), GAPDH F-primer, 5′-GAGCCAAACGGGTCATCA-3′ (SEQ ID NO: 60) and GAPDH R-primer, 5′-CATATTCGTGGTTCACACC-3′ (SEQ ID NO: 61).

TRP2 = assay: as above; settings: 20 μg/ml α-MSH plus 1, 10 and 50 μg/ml, 4 days
Experimental: as §1, §2

[2] = test system: microphtnalmia-associated transcription factor (MITF); assay: as above; settings: 20 μg/ml α-MSH plus 1, 10 and 50 μg/ml, 4 days
Experimental: as §1, §2

Substance | Screening value: Inhibition of melanogenesis against α-MSH (B16F10 melanocytes) | inhibition rate of melanogenesis (B16F10 melanocytes) [%] | expression of TRP-1 gene (mRNA, RT-PCR) [1] | expression of TRP-2 gene (mRNA, RT-PCR) (TRP2) | expression of MITF gene (mRNA, RT-PCR) [2]
nicotinoyl-QI (N-terminal nicotinoyl; niacin-linked peptide) | 0.82 |  |  |  | 
nicotinoyl-NL (N-terminal nicotinoyl; niacin linked to peptide′s N-terminal) | 0.8 |  |  |  | 
nicotinoyl-EQ (N-terminal nicotinoyl; niacin-linked peptide) | 0.9 |  |  |  | 
nicotinoyl-WM (N-terminal nicotinoyl; niacin-linked peptide) | 0.81 |  |  |  | 
nicotinoyl-IF (N-terminal nicotinoyl; niacin-linked peptide) | 1 |  |  |  | 
nicotinoyl-NI (N-terminal nicotinoyl; niacin-linked peptide) | 0.8 |  |  |  | 
nicotinoyl-YR (N-terminal nicotinoyl; niacin-linked peptide) | 0.79 |  |  |  | 
nicotinoyl-VT (N-terminal nicotinoyl; niacin-linked peptide) | 0.78 |  |  |  | 
nicotinoyl-VS (N-terminal nicotinoyl; niacin-linked peptide) | 0.65 | 35 | inhibit the expression | inhibit the expression | inhibit the expression
nicotinoyl-NY (N-terminal nicotinoyl; niacin-linked peptide) | 0.8 |  |  |  | 
nicotinoyl-ET (N-terminal nicotinoyl; niacin-linked peptide) | 0.60 | 40 | inhibit the expression | inhibit the expression | inhibit the expression
nicotinoyl-PG (N-terminal nicotinoyl; niacin-linked peptide) | 0.70 | 30 | inhibit the expression | inhibit the expression | inhibit the expression
nicotinoyl-VF (N-terminal nicotinoyl; niacin-linked peptide) | 0.81 |  |  |  | 
nicotinoyl-VA (N-terminal nicotinoyl; niacin-linked peptide) | 0.83 |  |  |  | 
nicotinoyl-FP (N-terminal nicotinoyl; niacin-linked peptide) | 0.8 |  |  |  | 

From patent publication US9456972B2, “Niacin-peptide having skin whitening activity and use for same” (priority 2011, dated 2016)
